Tests used:
dopamine transporter = dopamine transporter (UniProt P23977); details: read-out: DA IC50 for inhibition of radioligand binding; DA=[3H]WIN 35,428
Description: (§1) Illustrative in vitro assays for binding are described in Boja et al Ann. NY Acad. Sci. 654:282-291 (1992), which is incorporated herein by reference in its entirety. […] Alternatively, the compounds may be analyzed by their ability to inhibit reuptake of a labelled neurotransmitter in a sample, in particular, in synaptosomes.

Chains of the proteins cited; added tags and fusions are not shown.
UniProt P31652, whole entry: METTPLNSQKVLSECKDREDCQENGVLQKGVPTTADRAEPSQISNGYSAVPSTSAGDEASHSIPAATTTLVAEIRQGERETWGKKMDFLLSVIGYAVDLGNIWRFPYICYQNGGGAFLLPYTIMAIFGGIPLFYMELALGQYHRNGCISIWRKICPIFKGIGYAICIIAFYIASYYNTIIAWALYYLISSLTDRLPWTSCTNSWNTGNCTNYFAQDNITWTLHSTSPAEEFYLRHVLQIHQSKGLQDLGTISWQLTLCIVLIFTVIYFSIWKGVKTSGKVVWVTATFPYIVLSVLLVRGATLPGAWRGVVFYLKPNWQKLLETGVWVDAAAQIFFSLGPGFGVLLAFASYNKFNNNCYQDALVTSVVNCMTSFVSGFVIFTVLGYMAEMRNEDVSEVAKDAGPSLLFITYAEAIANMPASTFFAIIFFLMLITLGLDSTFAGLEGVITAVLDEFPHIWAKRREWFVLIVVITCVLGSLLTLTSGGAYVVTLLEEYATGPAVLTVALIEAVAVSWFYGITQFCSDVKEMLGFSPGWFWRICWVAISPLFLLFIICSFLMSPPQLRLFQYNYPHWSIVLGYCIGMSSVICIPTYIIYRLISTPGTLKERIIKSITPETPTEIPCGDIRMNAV

serotonin transporter = molecular target: T1, serotonin transporter (Rattus norvegicus, UniProt P31652); assay: Inhibition of [3H]paroxetine radioligand binding at the serotonin transporter; details: 5-HT IC50 for inhibition of radioligand binding, 5-HT=[3H] paroxetine
T1 construct: from tissue
Description: as §1

Structure (SMILES) | IC50 (dopamine transporter) [nM] | IC50 (serotonin transporter) [nM]
Cc1noc(C2C(c3ccc(Cl)cc3)CC3CCC2N3C)n1 (stereo not drawn) [RTI-4229-125] | 4.05 | –
COC(=O)C1C2CCC(C[C@H]1c1ccccc1)N2C (stereo partly drawn) [RTI-4229-140] | – | 5700
COC(=O)C1C(c2ccc(Cl)cc2)CC2CCC1N2C (stereo not drawn) [RTI-4229-31] | 1.12 | –
